The source of these data is patent publication US6855807B1 (priority 1999, dated 2005).

By UniProt entry, the sequences of proteins in these tests, tags left out. Where a name states a change or a piece, a line headed by the entry shows the natural chain unless it says otherwise.
UniProt P34975: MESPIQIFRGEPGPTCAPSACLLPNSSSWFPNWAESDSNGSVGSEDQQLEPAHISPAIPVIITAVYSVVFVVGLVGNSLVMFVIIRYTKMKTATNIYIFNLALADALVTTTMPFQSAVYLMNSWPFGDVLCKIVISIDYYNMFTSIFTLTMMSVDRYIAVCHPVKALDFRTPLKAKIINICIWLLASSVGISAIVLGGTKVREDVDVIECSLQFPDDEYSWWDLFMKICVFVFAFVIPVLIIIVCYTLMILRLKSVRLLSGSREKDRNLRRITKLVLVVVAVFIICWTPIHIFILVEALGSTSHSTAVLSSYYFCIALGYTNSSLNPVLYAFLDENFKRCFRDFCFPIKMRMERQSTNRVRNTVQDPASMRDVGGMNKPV
UniProt P32300, whole entry: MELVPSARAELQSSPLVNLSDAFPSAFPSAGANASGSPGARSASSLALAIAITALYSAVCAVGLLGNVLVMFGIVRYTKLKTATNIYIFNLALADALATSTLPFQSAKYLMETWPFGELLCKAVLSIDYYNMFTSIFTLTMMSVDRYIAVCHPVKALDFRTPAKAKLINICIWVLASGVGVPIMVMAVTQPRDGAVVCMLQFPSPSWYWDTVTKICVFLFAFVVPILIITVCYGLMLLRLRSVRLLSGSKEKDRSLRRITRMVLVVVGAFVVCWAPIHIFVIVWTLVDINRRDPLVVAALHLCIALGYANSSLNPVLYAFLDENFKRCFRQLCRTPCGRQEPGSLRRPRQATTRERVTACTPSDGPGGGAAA
UniProt P42866, whole entry: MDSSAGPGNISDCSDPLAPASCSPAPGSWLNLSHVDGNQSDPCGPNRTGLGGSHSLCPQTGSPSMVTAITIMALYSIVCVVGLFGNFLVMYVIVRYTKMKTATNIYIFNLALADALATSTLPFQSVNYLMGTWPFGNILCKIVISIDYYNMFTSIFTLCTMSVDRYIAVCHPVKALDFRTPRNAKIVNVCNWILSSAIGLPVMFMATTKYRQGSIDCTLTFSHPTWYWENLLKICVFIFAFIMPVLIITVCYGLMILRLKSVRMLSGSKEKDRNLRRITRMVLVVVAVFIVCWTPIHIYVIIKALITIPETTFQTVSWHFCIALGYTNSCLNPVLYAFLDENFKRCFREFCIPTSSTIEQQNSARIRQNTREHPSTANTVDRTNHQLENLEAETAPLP
UniProt P35372, whole entry: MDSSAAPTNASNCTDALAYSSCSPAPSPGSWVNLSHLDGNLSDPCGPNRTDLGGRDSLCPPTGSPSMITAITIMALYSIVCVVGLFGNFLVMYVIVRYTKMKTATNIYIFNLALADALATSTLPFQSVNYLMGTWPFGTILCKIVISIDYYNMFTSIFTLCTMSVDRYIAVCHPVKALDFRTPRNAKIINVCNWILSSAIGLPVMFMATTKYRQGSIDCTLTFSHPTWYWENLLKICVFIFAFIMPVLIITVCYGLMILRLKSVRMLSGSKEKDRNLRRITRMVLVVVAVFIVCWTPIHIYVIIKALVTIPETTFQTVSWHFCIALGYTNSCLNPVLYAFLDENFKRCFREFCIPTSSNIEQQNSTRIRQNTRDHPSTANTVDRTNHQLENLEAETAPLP
UniProt P41143, whole entry: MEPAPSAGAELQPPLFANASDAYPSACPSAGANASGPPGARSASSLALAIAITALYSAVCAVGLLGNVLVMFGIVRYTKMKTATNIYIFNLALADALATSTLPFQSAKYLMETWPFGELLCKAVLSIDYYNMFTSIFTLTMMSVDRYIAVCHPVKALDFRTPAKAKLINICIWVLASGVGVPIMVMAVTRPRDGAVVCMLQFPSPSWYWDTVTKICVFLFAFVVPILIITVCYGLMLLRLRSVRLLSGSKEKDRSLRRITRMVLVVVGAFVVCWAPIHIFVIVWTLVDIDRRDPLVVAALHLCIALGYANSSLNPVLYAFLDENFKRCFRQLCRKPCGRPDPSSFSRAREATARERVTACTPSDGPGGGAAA

Molecules are shown by their SMILES.

In assay [1] the target is T1, kappa opioid receptor (Rattus norvegicus, UniProt P34975).
T1 construct: expressed in transfected cells; host or cells: HEK293
In kind it is binding. To be noted: read-out: Kappa (Ki).

In assay [2] the target is T2, kappa-delta heterodimer (UniProt P32300+P34975).
T2 construct: myc; FLAG; expressed in transfected cells; host or cells: HEK293
It is filed as binding, rat kappa, mouse delta. To be noted: read-out: Kappa-Delta (Ki).

Assay [3] concerns the target T3, mu and delta receptors (Mus musculus, UniProt P32300+P42866).
T3 construct: FLAG; myc; expressed in transfected cells; host or cells: CHO
As to the kind of experiment: Whole cell 3H-DAMGO binding, cells exogenously co-expressing mu and delta receptors. To be noted: 10 nM TIPPΨ.

Assay [4] has as its target T4, SK-N-SH neuroblastoma cells that endogenously express mu and delta receptors (Homo sapiens, UniProt P35372+P41143).
T4 construct: SK-N-SH cells that endogenously express mu and delta receptors; endogenous in cells; host or cells: SK-N-SH neuroblastoma cells
As to the kind of experiment: Whole cell 3H-DAMGO binding, SK-N-SH neuroblastoma cells. To be noted: 10 nM TIPPΨ.

In assay [5] the target is T5, mu receptors (Mus musculus, UniProt P42866).
T5 construct: FLAG; expressed in transfected cells; host or cells: CHO
As to the kind of experiment: Whole cell 3H-DAMGO binding, cells expressing mu receptors alone. To be noted: cells expressing only mu receptors.

Assay [6] concerns the target T6, mu-delta heterodimer (Mus musculus, UniProt P32300+P42866).
T6 construct: FLAG; myc; expressed in transfected cells
As to the kind of experiment: Phosphorylated MAPK assay, mu-delta heterodimer. It is filed as cell-based. To be noted: 10 nM TIPPΨ.

As to `N[C@@H](Cc1ccc(O)cc1)C(=O)N1Cc2ccccc2C[C@H]1CN[C@@H](Cc1ccccc1)C(=O)N[C@@H](Cc1ccccc1)C(=O)O` [TIPP Ψ], the Ki in assay [1] and in assay [2] was above 1000 nM each time. Further, the “increase in the number of 3H-DAMGO binding sites” value in assay [3] and in assay [4] was “about 50%” each time. In addition, the “increase in 3H-DAMGO binding sites” value in assay [5] is given as “not seen”. For the same compound, the “DAMGO-induced MAPK phosphorylation” value in assay [6] was “significant increase”.
